In ChEMBL document CHEMBL2176978, “Fragment-based discovery of bromodomain inhibitors part 2: optimization of phenylisoxazole sulfonamides” (J Med Chem, 2012):
pIC50, pKd: −log10 of the molar value.

By UniProt entry, the sequences of proteins in these tests, tags left out.
UniProt Q15059, whole entry: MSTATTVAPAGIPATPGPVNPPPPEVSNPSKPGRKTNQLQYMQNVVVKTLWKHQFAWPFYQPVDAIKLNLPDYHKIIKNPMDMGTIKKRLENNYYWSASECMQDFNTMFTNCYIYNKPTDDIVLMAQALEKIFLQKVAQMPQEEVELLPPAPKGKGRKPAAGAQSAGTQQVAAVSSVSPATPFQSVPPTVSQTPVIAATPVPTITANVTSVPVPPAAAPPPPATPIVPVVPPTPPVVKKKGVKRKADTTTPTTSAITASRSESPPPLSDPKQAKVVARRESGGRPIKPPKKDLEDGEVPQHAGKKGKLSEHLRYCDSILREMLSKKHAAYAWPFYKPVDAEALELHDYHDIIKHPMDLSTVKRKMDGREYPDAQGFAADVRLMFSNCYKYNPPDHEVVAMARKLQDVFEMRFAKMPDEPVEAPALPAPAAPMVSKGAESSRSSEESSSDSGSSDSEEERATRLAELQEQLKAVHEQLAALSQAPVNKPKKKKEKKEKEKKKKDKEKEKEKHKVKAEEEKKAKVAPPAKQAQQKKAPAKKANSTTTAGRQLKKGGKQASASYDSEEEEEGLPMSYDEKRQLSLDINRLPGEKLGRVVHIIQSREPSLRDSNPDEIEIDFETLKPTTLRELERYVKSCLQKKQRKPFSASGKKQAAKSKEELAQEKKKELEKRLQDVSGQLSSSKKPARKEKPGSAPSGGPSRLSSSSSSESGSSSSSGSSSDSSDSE

Tests used:
[1] = biological target: T1, Bromodomain-containing protein 3 (Homo sapiens, UniProt Q15059); test: Inhibition of His6-tagged BRD3 expressed in Escherichia coli assessed as inhibition of binding to SGRG-K(Ac)-GG-K(Ac)-GLG-K(Ac)-GGA-K(Ac)-RHGSGSK-biotin after 1 hr by TR-FRET assay
[2] = biological target: T1, Bromodomain-containing protein 3; test: Inhibition of His6-tagged BRD3 expressed in Escherichia coli after 60 mins by fluorescence anisotropy assay
[3] = biological target: T1, Bromodomain-containing protein 3; test: Binding affinity to His6-tagged BRD3 expressed in Escherichia coli by isothermal colorimetric analysis

`Cc1nnc2n1-c1ccccc1C(c1ccccc1)=N[C@H]2NC(=O)OCc1ccccc1` was tested, and the pIC50 [1] was 6.66, the pIC50 [2] was 6.46 and the pKd [3] was 7.72.
